Measurements published in ChEMBL document CHEMBL2413047, “Identification of GNE-293, a potent and selective PI3Kδ inhibitor: navigating in vitro genotoxicity while improving potency and selectivity” (Bioorg Med Chem Lett, 2013).

Target: T1, Phosphatidylinositol 4,5-bisphosphate 3-kinase catalytic subunit delta isoform (Homo sapiens, UniProt O00329)
T1 sequence (O00329 whole entry): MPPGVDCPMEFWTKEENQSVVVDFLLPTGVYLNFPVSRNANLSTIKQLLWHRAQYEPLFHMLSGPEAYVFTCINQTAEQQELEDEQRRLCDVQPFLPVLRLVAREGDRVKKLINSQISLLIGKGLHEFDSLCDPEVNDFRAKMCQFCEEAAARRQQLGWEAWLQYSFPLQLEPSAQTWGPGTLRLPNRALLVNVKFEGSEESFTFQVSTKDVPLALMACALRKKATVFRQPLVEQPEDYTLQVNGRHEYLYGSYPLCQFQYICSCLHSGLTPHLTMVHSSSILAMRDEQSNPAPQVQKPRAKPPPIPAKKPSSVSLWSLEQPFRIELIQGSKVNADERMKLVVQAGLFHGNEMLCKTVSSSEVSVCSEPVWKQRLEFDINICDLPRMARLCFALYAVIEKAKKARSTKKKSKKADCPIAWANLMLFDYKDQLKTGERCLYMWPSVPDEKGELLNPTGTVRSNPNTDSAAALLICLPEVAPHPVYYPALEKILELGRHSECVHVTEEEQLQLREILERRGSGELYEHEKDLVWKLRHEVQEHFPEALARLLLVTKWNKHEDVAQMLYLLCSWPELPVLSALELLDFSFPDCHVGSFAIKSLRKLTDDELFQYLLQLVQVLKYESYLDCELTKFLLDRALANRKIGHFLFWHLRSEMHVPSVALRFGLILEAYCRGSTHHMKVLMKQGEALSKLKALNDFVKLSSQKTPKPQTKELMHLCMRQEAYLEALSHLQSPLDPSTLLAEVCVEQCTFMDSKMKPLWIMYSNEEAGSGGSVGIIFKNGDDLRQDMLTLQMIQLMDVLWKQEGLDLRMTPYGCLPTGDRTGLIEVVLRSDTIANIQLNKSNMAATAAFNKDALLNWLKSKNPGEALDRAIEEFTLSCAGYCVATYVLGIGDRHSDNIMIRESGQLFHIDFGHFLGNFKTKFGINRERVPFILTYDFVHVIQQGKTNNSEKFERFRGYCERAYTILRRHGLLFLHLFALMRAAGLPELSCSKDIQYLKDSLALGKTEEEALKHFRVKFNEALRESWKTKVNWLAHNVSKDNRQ
Assay: Inhibition of PI3Kdelta in human whole blood assessed as expression of CD69 in B cell preincubated for 1 hr by flow cytometry
Type: tissue-based

How did the IC50 turn out when `CCc1nc2ccccc2n1-c1nc(N2CCOCC2)c2nc(OC3CN(C(=O)C(C)C)C3)n(C)c2n1` was run?
Its IC50 is 11.9 nM.
